Assays:
Test in all cases: Kinase Profiling Assay
Assay type in all cases: biochemical
Settings in all cases: peptide 100 μM
FGFR2(N549H)(h) = FGFR2(N549H)(h) (Homo sapiens, UniProt P21802, N549H)
Procedure: (§1) Every kinase activity measurement was conducted in duplicate.
(§2) Specifically, in these assays, a positively charged substrate is phosphorylated with a radiolabeled phosphate group from an ATP if the kinase is not inhibited by an inhibitor peptide. The positively charged substrate then is attracted to a negatively charged filter membrane, quantified with a scintillation counter, and compared to a 100% activity control.
(§3) In addition to determining the IC50 of the compound, the specificity of MK2 inhibitory peptides was assessed by examining activities of all 266 human kinases available for testing in the Millipore kinase profiling service (Table 1).

The chains behind the UniProt entries cited, without tags or fusion partners. Where a name states a change or a piece, a line headed by the entry shows the natural chain unless it says otherwise. Residues count along the entry.
UniProt Q9NQU5: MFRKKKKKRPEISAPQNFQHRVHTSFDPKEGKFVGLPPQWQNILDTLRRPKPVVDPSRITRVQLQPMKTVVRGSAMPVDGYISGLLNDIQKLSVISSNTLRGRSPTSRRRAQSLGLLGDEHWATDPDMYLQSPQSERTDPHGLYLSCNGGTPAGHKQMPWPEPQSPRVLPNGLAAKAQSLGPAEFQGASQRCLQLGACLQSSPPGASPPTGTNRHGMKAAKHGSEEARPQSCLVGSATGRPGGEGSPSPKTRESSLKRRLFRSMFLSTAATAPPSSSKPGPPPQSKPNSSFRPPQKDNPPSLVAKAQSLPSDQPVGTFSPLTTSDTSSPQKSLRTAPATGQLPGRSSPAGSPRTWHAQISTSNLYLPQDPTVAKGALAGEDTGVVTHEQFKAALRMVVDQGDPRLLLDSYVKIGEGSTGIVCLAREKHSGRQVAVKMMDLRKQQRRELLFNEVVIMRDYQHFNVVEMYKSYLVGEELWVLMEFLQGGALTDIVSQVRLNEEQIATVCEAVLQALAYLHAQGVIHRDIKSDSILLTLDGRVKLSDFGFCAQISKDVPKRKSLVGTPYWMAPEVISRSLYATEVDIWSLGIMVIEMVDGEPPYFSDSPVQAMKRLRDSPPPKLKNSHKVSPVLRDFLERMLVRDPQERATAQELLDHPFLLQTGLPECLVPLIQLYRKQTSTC
UniProt Q02763, 23-1124 R849W: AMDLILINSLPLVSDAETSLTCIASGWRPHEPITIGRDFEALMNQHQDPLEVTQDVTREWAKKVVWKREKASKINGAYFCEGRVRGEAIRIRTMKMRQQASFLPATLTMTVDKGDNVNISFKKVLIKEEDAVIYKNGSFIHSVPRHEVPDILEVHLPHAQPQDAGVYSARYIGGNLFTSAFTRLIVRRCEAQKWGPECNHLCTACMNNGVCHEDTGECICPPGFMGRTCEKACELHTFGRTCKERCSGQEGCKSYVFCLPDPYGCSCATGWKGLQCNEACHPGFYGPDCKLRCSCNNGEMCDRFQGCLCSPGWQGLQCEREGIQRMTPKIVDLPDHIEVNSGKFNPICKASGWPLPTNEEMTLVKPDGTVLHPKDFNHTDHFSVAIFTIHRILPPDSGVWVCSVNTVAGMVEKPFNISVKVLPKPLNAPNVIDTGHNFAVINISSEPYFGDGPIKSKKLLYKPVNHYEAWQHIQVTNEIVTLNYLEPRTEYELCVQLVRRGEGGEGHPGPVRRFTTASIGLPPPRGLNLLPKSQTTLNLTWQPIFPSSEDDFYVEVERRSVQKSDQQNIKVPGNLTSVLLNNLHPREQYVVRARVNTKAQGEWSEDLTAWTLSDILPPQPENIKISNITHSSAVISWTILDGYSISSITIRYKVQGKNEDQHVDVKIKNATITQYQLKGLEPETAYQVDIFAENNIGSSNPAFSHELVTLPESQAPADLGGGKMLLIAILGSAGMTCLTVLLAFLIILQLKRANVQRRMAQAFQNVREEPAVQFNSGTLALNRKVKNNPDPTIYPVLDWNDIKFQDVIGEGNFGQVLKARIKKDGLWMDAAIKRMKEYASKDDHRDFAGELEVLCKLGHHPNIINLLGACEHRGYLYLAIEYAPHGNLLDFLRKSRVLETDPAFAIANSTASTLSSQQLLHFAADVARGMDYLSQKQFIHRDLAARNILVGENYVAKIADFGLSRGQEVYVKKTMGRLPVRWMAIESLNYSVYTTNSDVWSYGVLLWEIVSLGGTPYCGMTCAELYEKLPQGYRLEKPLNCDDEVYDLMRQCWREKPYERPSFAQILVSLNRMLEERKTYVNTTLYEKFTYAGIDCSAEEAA
UniProt P16234, 24-1089 D842V: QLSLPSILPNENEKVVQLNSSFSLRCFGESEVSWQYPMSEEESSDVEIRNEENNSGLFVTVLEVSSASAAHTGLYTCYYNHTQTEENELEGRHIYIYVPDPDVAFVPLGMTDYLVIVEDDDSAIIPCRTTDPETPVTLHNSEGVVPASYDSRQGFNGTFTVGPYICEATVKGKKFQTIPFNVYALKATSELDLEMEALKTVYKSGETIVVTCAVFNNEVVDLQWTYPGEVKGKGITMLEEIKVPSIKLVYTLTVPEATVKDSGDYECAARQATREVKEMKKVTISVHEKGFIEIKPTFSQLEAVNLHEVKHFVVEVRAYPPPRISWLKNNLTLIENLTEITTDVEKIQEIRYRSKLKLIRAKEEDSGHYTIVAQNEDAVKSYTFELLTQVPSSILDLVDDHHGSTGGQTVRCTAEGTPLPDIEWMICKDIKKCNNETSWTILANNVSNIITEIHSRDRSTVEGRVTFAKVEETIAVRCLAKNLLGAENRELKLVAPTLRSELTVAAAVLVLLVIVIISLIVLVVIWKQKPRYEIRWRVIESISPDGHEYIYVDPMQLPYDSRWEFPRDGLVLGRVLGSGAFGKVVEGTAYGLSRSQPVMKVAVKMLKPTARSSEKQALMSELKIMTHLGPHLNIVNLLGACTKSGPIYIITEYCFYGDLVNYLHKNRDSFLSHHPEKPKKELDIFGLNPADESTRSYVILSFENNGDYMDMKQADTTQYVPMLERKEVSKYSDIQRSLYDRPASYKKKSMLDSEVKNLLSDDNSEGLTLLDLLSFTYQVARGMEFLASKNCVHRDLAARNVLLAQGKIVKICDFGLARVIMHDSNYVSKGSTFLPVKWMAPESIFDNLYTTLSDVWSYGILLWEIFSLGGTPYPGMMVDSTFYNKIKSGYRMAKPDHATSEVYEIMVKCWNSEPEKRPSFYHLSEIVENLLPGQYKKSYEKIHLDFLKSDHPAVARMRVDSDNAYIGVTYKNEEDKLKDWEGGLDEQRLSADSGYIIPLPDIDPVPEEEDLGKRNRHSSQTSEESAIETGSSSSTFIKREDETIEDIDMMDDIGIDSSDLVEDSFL
UniProt Q00526: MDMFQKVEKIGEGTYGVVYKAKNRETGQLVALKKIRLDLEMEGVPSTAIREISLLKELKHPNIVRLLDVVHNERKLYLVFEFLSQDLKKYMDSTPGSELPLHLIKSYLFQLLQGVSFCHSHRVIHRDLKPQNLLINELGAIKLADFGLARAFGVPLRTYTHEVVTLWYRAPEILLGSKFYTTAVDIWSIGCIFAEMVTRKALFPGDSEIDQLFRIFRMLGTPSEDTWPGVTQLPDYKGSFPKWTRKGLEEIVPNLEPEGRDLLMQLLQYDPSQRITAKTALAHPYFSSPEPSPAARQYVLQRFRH
UniProt Q9H422: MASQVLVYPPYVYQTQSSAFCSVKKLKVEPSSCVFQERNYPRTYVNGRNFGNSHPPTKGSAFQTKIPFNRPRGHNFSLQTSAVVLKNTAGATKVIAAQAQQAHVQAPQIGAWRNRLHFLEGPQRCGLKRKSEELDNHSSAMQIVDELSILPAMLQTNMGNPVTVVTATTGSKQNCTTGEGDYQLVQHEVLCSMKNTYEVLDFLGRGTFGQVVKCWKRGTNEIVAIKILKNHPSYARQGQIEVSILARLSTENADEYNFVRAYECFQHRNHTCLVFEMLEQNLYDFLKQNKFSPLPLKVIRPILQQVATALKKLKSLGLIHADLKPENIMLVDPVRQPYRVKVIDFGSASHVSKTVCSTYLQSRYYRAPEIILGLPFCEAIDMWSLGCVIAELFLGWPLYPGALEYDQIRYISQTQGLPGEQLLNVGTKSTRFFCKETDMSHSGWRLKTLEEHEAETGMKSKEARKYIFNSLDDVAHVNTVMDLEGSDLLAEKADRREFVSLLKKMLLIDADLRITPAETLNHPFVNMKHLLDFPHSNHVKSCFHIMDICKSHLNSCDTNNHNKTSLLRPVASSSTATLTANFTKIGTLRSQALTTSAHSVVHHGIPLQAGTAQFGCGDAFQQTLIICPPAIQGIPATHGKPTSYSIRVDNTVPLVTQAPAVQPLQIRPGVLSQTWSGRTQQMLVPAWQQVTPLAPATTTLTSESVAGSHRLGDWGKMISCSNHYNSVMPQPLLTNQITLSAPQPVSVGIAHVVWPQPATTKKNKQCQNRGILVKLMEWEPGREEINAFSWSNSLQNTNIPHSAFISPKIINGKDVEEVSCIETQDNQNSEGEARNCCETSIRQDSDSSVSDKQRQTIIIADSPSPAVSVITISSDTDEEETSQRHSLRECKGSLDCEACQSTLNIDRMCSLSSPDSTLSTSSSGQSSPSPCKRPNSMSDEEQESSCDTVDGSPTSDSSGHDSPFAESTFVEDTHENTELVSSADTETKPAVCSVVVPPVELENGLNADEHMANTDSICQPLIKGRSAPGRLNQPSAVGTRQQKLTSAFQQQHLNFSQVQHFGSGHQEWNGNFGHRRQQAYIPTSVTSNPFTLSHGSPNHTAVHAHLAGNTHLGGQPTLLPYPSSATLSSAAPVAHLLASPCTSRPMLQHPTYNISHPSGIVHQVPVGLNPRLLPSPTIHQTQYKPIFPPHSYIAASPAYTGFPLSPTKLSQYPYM

PAK6(h) = PAK6(h) (Homo sapiens, UniProt Q9NQU5)
Procedure: as §1, §2, §3

Plk1(h) = Plk1(h) (Homo sapiens, UniProt P53350)
Procedure: as §1, §2, §3

Tie2(R849W)(h) = Tie2(R849W)(h) (Homo sapiens, UniProt Q02763, R849W)
Procedure: as §1, §2, §3

PAR-1Bα(h) = biological target: T1, PAR-1Bα(h) (Homo sapiens, UniProt Q7KZI7)
T1 sequence (Q7KZI7 1-725 isoform Q7KZI7-4): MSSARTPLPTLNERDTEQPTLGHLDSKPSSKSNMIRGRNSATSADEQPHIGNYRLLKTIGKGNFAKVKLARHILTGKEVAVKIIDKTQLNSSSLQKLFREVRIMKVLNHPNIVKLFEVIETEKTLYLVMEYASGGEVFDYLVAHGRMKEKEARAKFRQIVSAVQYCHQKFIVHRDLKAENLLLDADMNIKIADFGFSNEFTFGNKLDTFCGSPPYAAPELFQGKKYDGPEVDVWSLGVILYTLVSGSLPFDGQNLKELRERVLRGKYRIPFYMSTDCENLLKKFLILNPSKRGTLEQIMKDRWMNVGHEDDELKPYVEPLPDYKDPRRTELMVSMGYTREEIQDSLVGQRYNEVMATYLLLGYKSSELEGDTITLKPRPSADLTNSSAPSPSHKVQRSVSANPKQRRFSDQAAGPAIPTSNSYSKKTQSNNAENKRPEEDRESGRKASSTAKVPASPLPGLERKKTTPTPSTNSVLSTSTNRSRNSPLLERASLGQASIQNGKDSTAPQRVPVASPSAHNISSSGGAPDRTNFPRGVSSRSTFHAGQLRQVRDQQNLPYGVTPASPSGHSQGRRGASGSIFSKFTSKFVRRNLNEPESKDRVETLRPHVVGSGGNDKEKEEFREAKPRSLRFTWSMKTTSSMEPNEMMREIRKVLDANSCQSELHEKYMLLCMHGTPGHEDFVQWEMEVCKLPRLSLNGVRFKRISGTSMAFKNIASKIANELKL
Procedure: as §1, §2, §3

CLK2(h) = CLK2(h) (Homo sapiens, UniProt P49760)
Procedure: as §1, §2, §3

c-RAF(h) = c-RAF(h) (Homo sapiens, UniProt P04049)
Procedure: as §1, §2, §3

PDGFRα(D842V)(h) = PDGFRα(D842V)(h) (Homo sapiens, UniProt P16234, D842V)
Procedure: as §1, §2, §3

CDK3/cyclinE(h) = CDK3/cyclinE(h) (Homo sapiens, UniProt Q00526)
Procedure: as §1, §2, §3

CDK2/cyclinE(h) = CDK2/cyclinE(h) (Homo sapiens, UniProt P24941)
Procedure: as §1, §2, §3

Abl(M351T)(h) = Abl(M351T)(h) (Homo sapiens, UniProt P00519, M351T)
Procedure: as §1, §2, §3

EphA1(h) = biological target: T2, EphA1(h) (Homo sapiens, UniProt P21709)
T2 sequence (P21709 26-976): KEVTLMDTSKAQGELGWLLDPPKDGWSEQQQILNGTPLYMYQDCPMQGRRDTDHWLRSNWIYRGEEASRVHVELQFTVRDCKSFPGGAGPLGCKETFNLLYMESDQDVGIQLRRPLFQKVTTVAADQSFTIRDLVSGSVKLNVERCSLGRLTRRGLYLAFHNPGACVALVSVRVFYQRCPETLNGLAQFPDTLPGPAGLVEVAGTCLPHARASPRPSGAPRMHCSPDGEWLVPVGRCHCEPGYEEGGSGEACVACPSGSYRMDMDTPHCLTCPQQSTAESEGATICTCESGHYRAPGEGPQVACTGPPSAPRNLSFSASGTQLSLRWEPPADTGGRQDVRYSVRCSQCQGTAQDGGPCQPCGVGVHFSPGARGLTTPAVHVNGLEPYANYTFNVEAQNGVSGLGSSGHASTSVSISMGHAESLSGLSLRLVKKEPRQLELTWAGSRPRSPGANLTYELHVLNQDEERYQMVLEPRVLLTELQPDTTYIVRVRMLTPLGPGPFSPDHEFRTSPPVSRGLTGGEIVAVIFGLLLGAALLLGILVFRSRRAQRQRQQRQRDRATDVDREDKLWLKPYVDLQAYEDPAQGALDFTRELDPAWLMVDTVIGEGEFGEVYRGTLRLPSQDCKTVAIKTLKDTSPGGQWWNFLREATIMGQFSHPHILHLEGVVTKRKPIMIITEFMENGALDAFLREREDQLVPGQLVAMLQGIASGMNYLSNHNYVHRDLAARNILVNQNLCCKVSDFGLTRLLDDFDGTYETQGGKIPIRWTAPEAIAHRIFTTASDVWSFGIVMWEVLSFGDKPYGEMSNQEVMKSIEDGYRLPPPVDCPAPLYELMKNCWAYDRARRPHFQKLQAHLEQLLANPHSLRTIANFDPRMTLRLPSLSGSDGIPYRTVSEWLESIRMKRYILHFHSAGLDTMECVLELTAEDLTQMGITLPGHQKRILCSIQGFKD
Procedure: as §1, §2, §3

HIPK3(h) = biological target: T3, HIPK3(h) (Homo sapiens, UniProt Q9H422)
T3 construct: purchased Millipore
Procedure: as §1, §2, §3

Abl(Q252H)(h) = Abl(Q252H)(h) (Homo sapiens, UniProt P00519, Q252H)
Procedure: as §1, §2, §3

MAPK2(h) = biological target: T4, MAPK2(h) (Homo sapiens, UniProt P28482)
T4 construct: purchased Millipore
Procedure: as §1, §2, §3

CDK9/cyclin T1(h) = CDK9/cyclin T1(h) (Homo sapiens, UniProt P50750)
Procedure: as §1, §2, §3

Row | Compound | % activity (FGFR2(N549H)(h)) | % activity (PAK6(h)) | % activity (Plk1(h)) | % activity (Tie2(R849W)(h)) | % activity (PAR-1Bα(h)) | % activity (CLK2(h)) | % activity (c-RAF(h)) | % activity (PDGFRα(D842V)(h)) | % activity (CDK3/cyclinE(h)) | % activity (CDK2/cyclinE(h)) | % activity (Abl(M351T)(h)) | % activity (EphA1(h)) | % activity (HIPK3(h)) | % activity (Abl(Q252H)(h)) | % activity (MAPK2(h)) | % activity (CDK9/cyclin T1(h))
1 | FAKLAARLYRKALARQLGVAA [MMI-0300] | 116% | 104% | 115% | 117% | 113% | 103% | 107% | 114% | – | – | – | – | – | – | – | –
2 | YARAAARQARAKALNRQLGVA (Mammal) [MMI-0200] | 104% | 105% | – | – | – | – | 115% | 107% | 104% | 112% | 119% | 136% | 105% | 107% | 105% | 103%
3 | CC(C)C[C@H](NC(=O)[C@H](C)NC(=O)[C@H](CCCCN)NC(=O)[C@H](C)NC(=O)[C@H](CCCNC(=N)N)NC(=O)[C@H](C)NC(=O)[C@H](CCC(N)=O)NC(=O)[C@H](CCCNC(=N)N)NC(=O)[C@H](C)NC(=O)[C@H](C)NC(=O)[C@H](C)NC(=O)[C@H](CCCNC(=N)N)NC(=O)[C@H](C)NC(=O)[C@@H](N)Cc1ccc(O)cc1)C(=O)N[C@@H](C)C(=O)N[C@@H](CCCNC(=N)N)C(=O)N[C@@H](CCC(N)=O)C(=O)N[C@@H](CC(C)C)C(=O)NCC(=O)N[C@H](C(=O)N[C@@H](C)C(=O)N[C@@H](C)C(=O)O)C(C)C [MMI-0100] | – | 121% | 109% | 102% | 62% | 88% | 97% | 103% | 106% | 106% | 128% | 114% | 105% | 105% | 98% | 228%

— patent US20150258192A1, “COMPOSITIONS AND METHODS FOR PREVENTING OR TREATING CHRONIC LUNG ALLOGRAFT DYSFUNCTION (CLAD) AND IDIOPATHIC PULMONARY FIBROSIS (IPF)” (priority 2014, published 2015)
